Experimental data reported in ChEMBL document CHEMBL4715726, “Identification, characterization, kinetics, and molecular docking of flavonoid constituents from Archidendron clypearia (Jack.) Nielsen leaves and twigs” (Bioorg Med Chem, 2016).

Chains of the proteins cited; added tags and fusions are not shown.
UniProt P34913, whole entry: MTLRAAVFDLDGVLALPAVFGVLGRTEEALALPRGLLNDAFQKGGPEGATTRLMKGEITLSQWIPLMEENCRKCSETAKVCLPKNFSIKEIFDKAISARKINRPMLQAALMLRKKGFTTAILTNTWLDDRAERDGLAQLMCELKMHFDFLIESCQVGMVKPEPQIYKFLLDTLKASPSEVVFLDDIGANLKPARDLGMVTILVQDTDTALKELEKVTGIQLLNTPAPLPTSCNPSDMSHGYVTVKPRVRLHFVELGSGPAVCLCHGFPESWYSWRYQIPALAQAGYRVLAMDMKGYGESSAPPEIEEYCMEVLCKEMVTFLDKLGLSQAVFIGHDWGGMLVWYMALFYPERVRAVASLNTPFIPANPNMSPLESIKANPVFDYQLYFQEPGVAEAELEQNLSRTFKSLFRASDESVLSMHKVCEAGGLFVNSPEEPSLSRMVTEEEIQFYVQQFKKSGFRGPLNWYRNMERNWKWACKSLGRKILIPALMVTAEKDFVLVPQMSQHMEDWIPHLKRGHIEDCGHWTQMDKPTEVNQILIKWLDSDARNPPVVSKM

Molecular target: Bifunctional epoxide hydrolase 2 (Homo sapiens, UniProt P34913)
Test: Inhibition of sEH (unknown origin) assessed as reduction in 6-methoxy-2-naphthaldehyde formation using PHOME as substrate measured after 40 mins by fluorescence photometry analysis

CCCCOC(=O)CCCCCCCCCCCNC(=O)NC12CC3CC(CC(C3)C1)C2
IC50: 0.0133 µM
